Hits are enriched below; roughly 1.3% of the tested compounds scored in any of these assays.
PglD DTNB – inhibitors of Campylobacter jejuni PglD acetyltransferase; purified PglD enzyme, DTNB colorimetric CoA detection; inhibition, % at 12.5 µM; 360,000 compounds, 0.098% hits; AID 602405; in the data active = inhibition above about 16%, passing the limit was not always enough; inconclusive = no clear call, values can overlap the other calls
miR-122 sensor – blocks miR-122 activity in Huh7 sensor cells; Huh7 miR-122 Renilla luciferase sensor, 48 h; neutral wells = 0, positive control = 100; 340,000 compounds, 0.3% hits; activation (reporter increase), % at 12.5 µM;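 active = mean replicate activation score at least 90 and every replicate individually at or above 90; inconclusive = only one of the two criteria met; inactive = neither criterion met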;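 note: higher luciferase means less miR-122 activity so hits act as miR-122 inhibitors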
LGR2 antag – blocks bursicon-induced cAMP signaling via Drosophila LGR2 | AID 720647 | 380,000 compounds, 0.35% hits | inhibition, % at 9.99 µM | HEK293 LGR2, CRE-luciferase, bursicon-stimulated, 4 h;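 active = drop in luminescence signal, shown as inhibition above about 50% in the replicate tests, limit read from the data, passing the limit was not always enough; inconclusive = probably only some replicates passing the limit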;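 note: agonist challenge used bursicon conditioned medium at about half maximal strength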
UUG fidelity – modulators of start codon recognition fidelity in yeast; AID 602363; activity score, % at 18.7 µM; S. cerevisiae UUG-firefly luciferase reporter, luminescence/redox ratio; 0.13% of 350,000 active;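 active = replicate mean at a twofold rise or more, about +100% in these data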;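 note: firefly luciferase made from a UUG start codon reports start codon fidelity; reporter light over untreated wells divided by growth signal over untreated wells; some hits fall short of that in this replicate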
EWS-Fli inh – blocks EWS/Fli oncoprotein-driven transcription | A673 NR0B1-luciferase reporter, viability-normalised | inhibition, % at 12.6 µM | 350,000 compounds, 0.67% hits | AID 651661;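 active = mean inhibition of at least 50% after viability correction, with every replicate also passing that limit; inconclusive = mean reaches 50% but only one of two replicates passes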;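 note: firefly luciferase signal divided by Alamar Blue viability fluorescence both relative to DMSO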
CFTR F508del cor – correctors of CFTR F508del function in bronchial epithelial cells. CFBE cells, YFP halide quenching; stimulated with forskolin plus potentiator P3; % fluorescence drop versus neutral controls. 350,000 compounds, 0.36% hits. AID 720511. activity (quench increase), % at 7.58 µM;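 active = mean added fluorescence quench of at least 8% versus neutral control, with both replicates also reaching 8%; inconclusive = only one of the mean or replicate conditions met; inactive = mean below 8% and not both replicates reaching 8%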;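 note: cells transiently co-express mutant CFTR-F508del with the halide-sensitive YFP; corrector assay measuring rescue of mutant channel to the surface after 24 h compound exposure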
Numbers stand for hits; – = inactive; ? = inconclusive; · = not tested or not shown.

SMILES	PglD DTNB	miR-122 sensor	LGR2 antag	UUG fidelity	EWS-Fli inh	CFTR F508del cor
Fc1ccc(-n2nnc(-c3cnc4ccccc4c3)n2)cc1	–	–	79	–	–	–
CCCCCCCCN1C(=O)[C@@H](CC(=O)NCC23CC4CC(CC(C4)C2)C3)C[C@@]2(C(=O)OC)C1=C[C@H](C1CCCC1)O[C@@H]2C	·	·	–	·	–	–
COc1ccc(NC(=O)c2nc(C)c(C3(C)CC(c4cccnc4)=NO3)s2)cc1 (configuration not stated)	–	–	–	–	68	17
COc1ccc(C(=O)Nc2nc3c(s2)CCCC3)cc1S(=O)(=O)N1CCCc2ccccc21	–	115	–	–	·	·
COc1ccc(C(=O)Nc2ncccc2C)cc1S(=O)(=O)N1CCCc2ccccc21	·	·	–	·	–	–
COc1ccc(-c2cc3nc[nH]c(=O)c3s2)cc1	–	–	·	–	·	·
COc1ccc(-c2cc3nc(CCl)[nH]c(=O)c3s2)cc1	–	–	68	–	–	–
COc1cccc(-c2nnc(SCC(=O)NC3CCS(=O)(=O)C3)n2C)c1 (configuration not stated)	–	·	–	–	–	21
Cc1ccc2[nH]c(=O)c(-c3noc(CC(C)C)n3)cc2c1	–	–	–	–	–	–
O=C(O)c1ccc(Nc2nc3c(s2)CCCC3)cc1	·	·	?	·	67	·
CCOC(=O)c1c(SCCN2CCCC2)n(-c2ccccc2)c(=S)n(-c2ccccc2)c1=O	·	·	–	·	61	–
CC(=O)C1CCC2C3CC=C4CC(SC(=N)N)CCC4(C)C3CCC12C (configuration not stated)	·	·	90	·	–	–
CC(C)(C)[C@H](N)C(=O)N[C@H]1CCC2C3CC=C4C[C@@H](O)CC[C@]4(C)C3CC[C@@]21C (some centres not stated)	·	–	65	·	56	–
CC(C)CC1Nc2ncnc(N3CCN(c4ccccn4)CC3)c2N(Cc2ccc(Br)cc2)C1=O (configuration not stated)	–	–	–	–	–	8.3
Cc1ccc(CN2C(=O)C(CC(C)C)Nc3ncnc(N4CCN(c5ccccn5)CC4)c32)cc1 (configuration not stated)	–	–	–	–	–	–
COc1cc(C=C2CCCC(=Cc3ccc(OCC4CO4)c(OC)c3)C2=O)ccc1OCC1CO1 (configuration not stated)	–	·	–	–	68	–
COc1ccc(/C=C2\Cc3ccccc3C2=O)cc1OC	–	–	–	–	–	–
COc1ccc(/C=C2/CSC/C(=C/c3ccc(OC)c(OC)c3)C2=O)cc1OC	·	–	–	·	66	–
COc1cc(/C=C2\SC(=S)N(C(Cc3ccccc3)C(=O)O)C2=O)ccc1O (configuration not stated)	·	·	–	·	–	–
CC(=O)Nc1ccc(S(=O)(=O)N2c3ccccc3NC(=O)CC2C)c(Cl)c1 (configuration not stated)	–	–	–	–	–	–
O=C(Nc1nc(-c2ccccn2)cs1)c1ccc(F)c(S(=O)(=O)N2CCOCC2)c1	–	–	–	–	–	22
O=C(Nc1ccccn1)c1cccc(S(=O)(=O)N2CCOCC2)c1	–	160	·	–	·	·
Cc1ccnc(NC(=O)c2cccc(S(=O)(=O)N3CCOCC3)c2)c1	–	–	–	–	–	–
CC1CN(S(=O)(=O)c2cccc(C(=O)Nc3cc(Cl)ccc3N3CCOCC3)c2)CC(C)O1 (configuration not stated)	–	–	–	–	–	20
CCOC(=O)C1CCN(C(=O)COc2cccc(C)c2)CC1	–	–	–	–	–	–
COc1ccccc1CNC(=O)Nc1nc(C(N)Cc2ccc(Cl)cc2)cs1 (configuration not stated)	–	–	–	–	–	8.3
COc1ccc(CC(N)c2csc(NC(=O)Nc3ccccc3Cc3ccccc3)n2)cc1 (configuration not stated)	–	–	–	–	58	–
CCOc1ccc(S(=O)(=O)N(C)CCO)cc1-c1nc2c(C(C)(C)C)nn(C)c2c(=O)[nH]1	–	–	–	–	·	·
CN1CCN(c2ccc(S(=O)(=O)N3CCCCC3)cc2NC(=O)CCc2ccccc2)CC1	–	·	–	–	–	–
